The source of these data is patent KR20220006286A, “전립선암 진단 및 치료를 위한 전립선특이 막 항원 표적 화합물 및 이를 포함하는 전립선암 진단 및 치료용 조성물” (priority 2020, dated 2022).

Entries after “also recorded” stand apart in the source; their conditions may differ.

The assay concerns PC-3 and 22RV1 tumors (PC-3 및 22RV1 종양). The settings on record: mouse, in vivo, iv.

Regarding `OC[C@H]1OC(O)[C@H]([18F])[C@@H](O)[C@@H]1O` (stereo partly shown) [18F-FDG], the “tumor uptake on 18F-FDG PET/CT” value is reported as “양쪽 종양 모두에서 18F-FDG 흡수를 확인하였다; also recorded: 양쪽 종양 모두에서 축적됨을 확인하였다”.
